This note sets out measurements from PMC10051608, “Multi-Compartmental Dissolution Method, an Efficient Tool for the Development of Enhanced Bioavailability Formulations Containing Poorly Soluble Acidic Drugs” (Pharmaceutics, 2023).

The nature of this data set: Equilibrium solubility in biorelevant media, saturation shake-flask method. It is filed as physicochemical. The conditions noted are these: FaSSGF blank, pH 1.6, 37 °C.

As to `CC(C)Cc1ccc(C(C)C(=O)O)cc1` (stereo not shown) [ibuprofen], the “SpH ± SD” value worked out at 56.3 ± 0.6 µg/mL.
